Results as given in patent publication US20230181528A1, “COMPOSITIONS AND METHODS FOR TREATING NEOPLASIA” (The Broad Institute, Inc., priority 2020, published 2023).

Assays:
[1] = system: PANC0403 pancreatic cancer cell line (VPS4B^loss); experiment: Interferon dose-response curves with VPS4A suppression (CellTiter-Glo); format: cell-based, human; conditions: PANC0403 shVPS4A-2, co-treatment with 1 μM doxycycline, interferon titration for last 3 days
Description: (§1) To determine whether interferon treatment cooperate with VPS4A suppression, pancreatic cancer cell lines (KP4, PANC0403 and SNU213) stably expressing the doxycycline-inducible RNAi system against VPS4A (shVPS4A-2) were plated in white-walled 96-well plates at 100˜400 cells per well in 100 μL of 10% FBS-supplemented RPMI-1640 with L-glutamine with or without 1 μM doxycycline. Plates were incubated at 37° C., 5% CO2 for 3 days. A 9-point log 10 titration of a stock solution (5 μg/mL) of purified recombinant human interferon-β1 or interferon-γ (PeproTech 300-02BC; 300-02) dissolved in 1% BSA containing PBS with 0.3% Tween-20 was then added to the cells using a D300e Digital Dispenser (Tecan) using T8+ and D4+ dispense cassette heads (HP). At the same time, the doxycycline was refreshed. Cells were then incubated for an additional 3 days at 37° C., 5% CO2. Afterwards, 100 μL of premixed CellTiter-Glo (Promega) reagent was added to the wells to lyse cells by shaking the plates at 500 RPM for 10 minutes at room temperature. Luminescence for each well was then measured using an Envision plate reader (Perkin Elmer) to measure cell viability using the ATP-based readout. Luminescence signal for each well was normalized to the average signal from 6 wells treated without interferon for each cell line. […]

[2] = system: SNU213 pancreatic cancer cell line (VPS4B^loss); experiment: as above; format: cell-based, human; conditions: SNU213 shVPS4A-2, co-treatment with 1 μM doxycycline, interferon titration for last 3 days
Description: as §1

B1: Interferon-β: purified recombinant human interferon-β1 (PeproTech) (protein, UniProt P01574 22-187, looked up)
Interferon beta: MSYNLLGFLQRSSNFQCQKLLWQLNGRLEYCLKDRMNFDIPEEIKQLQQFQKEDAALTIYEMLQNIFAIFRQDSSSTGWNETIVENLLANVYHQINHLKTVLEEKLEKEDFTRGKLMSSLHLKRYYGRILHYLKAKEYSHCAWTIVRVEILRNFYFINRLTGYLRN
- sensitization to VPS4A suppression (6-day cell viability) [1]: did not alter sensitivity
- sensitization to VPS4A suppression (6-day cell viability) [2]: strongly sensitized
